Usually IC50 stands for the midpoint of a concentration-inhibition curve.

The values below come from paper PMC12196278, “Targeting Neuronal Nitric Oxide Synthase (nNOS) as a Novel Approach to Enhancing the Anti-Melanoma Activity of Immune Checkpoint Inhibitors” (Pharmaceutics, 2025).

Data set [1] deals with CS91 murine melanoma allograft. Put plainly: In vivo anti-melanoma efficacy, immunocompetent allograft model, tumor volume. The settings on record: day 18, DBA/2 mice, nNOS inhibitor 10 mg/kg/day intraperitoneal, anti-PD-1 100 µg twice per week for 2 weeks.
Data set [2] deals with CS91 murine melanoma allograft. The data set is described as follows: Survival analysis in the murine melanoma model (endpoint tumor volume 2000 mm^3). The conditions noted are these: DBA/2 mice, CS91, result in words.
Data set [3] in a line: Body weight, cecum weight and toxicity signs in treated mice. The settings on record: prolonged treatment, 21 days.
The next data set concerns CS91 cells. Put plainly: Ex vivo sensitivity of murine melanoma cells after prolonged treatment (MTT). The conditions noted are these: read-out: IC50 of CS91 cells isolated from control-treated mice.

Consider `CNCc1cccc(CCc2ccc3c(C)cc(N)nc3c2)c1`, for which, in data set [1], the “tumor growth / average tumor volume” value was 26.3 % of the control. Besides, the “median survival / mouse survival compared with the control group” value in data set [2] is on record as “not found to have significantly different median survival values”. The “body weight compared with the control” value in data set [3] is “did not exhibit significant changes”. The IC50 in the data set with CS91 cells was 4.2 µM.
